Protein sequences, listed by entry. Tags and fused reporters are not part of them. Residues count along the entry.
UniProt P01903, 26-254: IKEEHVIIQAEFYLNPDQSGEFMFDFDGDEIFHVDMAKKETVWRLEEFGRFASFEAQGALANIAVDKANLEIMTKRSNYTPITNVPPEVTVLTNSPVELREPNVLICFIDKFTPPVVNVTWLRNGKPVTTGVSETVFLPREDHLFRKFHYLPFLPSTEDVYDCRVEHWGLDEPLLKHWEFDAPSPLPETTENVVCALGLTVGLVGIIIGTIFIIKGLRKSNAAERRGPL
UniProt Q30154, 30-266: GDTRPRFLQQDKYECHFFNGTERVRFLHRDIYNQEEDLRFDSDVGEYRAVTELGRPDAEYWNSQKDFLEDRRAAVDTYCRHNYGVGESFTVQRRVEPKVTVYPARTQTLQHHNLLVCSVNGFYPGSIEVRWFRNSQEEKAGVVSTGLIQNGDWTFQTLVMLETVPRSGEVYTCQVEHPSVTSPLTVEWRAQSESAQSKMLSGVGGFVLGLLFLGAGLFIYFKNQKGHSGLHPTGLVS

In patent publication US20070184519A1, “Peptides, polypeptides, and proteins of reduced immunogenicity and methods for their production” (priority 2003, published 2007):

Biological target: T1, DRB5*0101 (Homo sapiens, UniProt P01903+Q30154)
T1 construct: Epstein-Barr virus (EBV) transformed homozygous cell lines were used as sources of human HLA Class II molecules; endogenous in cells; host or cells: GM3107 (EBV-transformed homozygous B cell line)
Assay: Class II peptide-binding assay DRB5*0101 (DR2w2a)
Conditions: IFNb 15-mer peptides, Table 5D

IC50: 5.46 µM
Compound: CC[C@H](C)[C@H](NC(=O)[C@H](CC(=O)O)NC(=O)[C@H](Cc1ccccc1)NC(=O)[C@H](CC(N)=O)NC(=O)[C@H](CCCNC(=N)N)NC(=O)[C@H](CCCNC(=N)N)NC(=O)[C@H](CC(=O)O)NC(=O)[C@H](CCCCN)NC(=O)[C@H](CC(C)C)NC(=O)[C@H](CS)NC(=O)[C@H](Cc1ccc(O)cc1)NC(=O)[C@H](CCC(=O)O)NC(=O)[C@H](CC(C)C)NC(=O)[C@H](CCCNC(=N)N)NC(=O)CN)C(=O)O
